From US9863701B2, “Compositions and methods for atmospheric spray freeze drying” (Aerosol Therapeutics, LLC, priority 2013, dated 2018) come the findings set out here.

Read-outs that look alike come from different tables or passages of the source.

A short description of data set [1]: Moisture content of powder after ASFD run, second generation equipment. Format: physicochemical. As to conditions: spray gas 5 SCFM, drying 20 SCFM.
The conditions of data set [2]: 10% BSA, 3.5 hours.
The conditions of data set [3]: 10% BSA, drying 20 SCFM, 3 hours.

Regarding Bovine Serum Albumin [BSA], the moisture content in data set [1] (10% BSA aqueous solution, 50 ml, after three hours) is 1.25%; in data set [2] (20° F., high flow run (25 SCFM full duration)), 9.6%; in data set [2] (20° F., low flow run (20 SCFM first hour then 25 SCFM)), 6.2%; in data set [2] (30° F., high flow run (25 SCFM full duration)) it was 32.6%; in data set [2] (30° F., low flow run (20 SCFM first hour then 25 SCFM)), 5.5%; in data set [3] (sprayed at higher gas flow rate (10 SCFM)), 26.1%. In data set [3] (sprayed at lower gas flow rate (5 SCFM)), the moisture content is reported as 1.1%.
In data set [1] (0.5% Dextran 500 and 10.5% sucrose aqueous solution, 25 ml, after ten hours), Dextran 500 returned a moisture content of 5.16%.
